Data published in ChEMBL document CHEMBL1687730, “New high-throughput screening assay to reveal similarities and differences in inhibitory sensitivities of multidrug ATP-binding cassette transporters” (Antimicrob Agents Chemother, 2009).

By UniProt entry, the sequences of proteins in these tests, tags left out. Where a name states a change or a piece, a line headed by the entry shows the natural chain unless it says otherwise.
UniProt P33302: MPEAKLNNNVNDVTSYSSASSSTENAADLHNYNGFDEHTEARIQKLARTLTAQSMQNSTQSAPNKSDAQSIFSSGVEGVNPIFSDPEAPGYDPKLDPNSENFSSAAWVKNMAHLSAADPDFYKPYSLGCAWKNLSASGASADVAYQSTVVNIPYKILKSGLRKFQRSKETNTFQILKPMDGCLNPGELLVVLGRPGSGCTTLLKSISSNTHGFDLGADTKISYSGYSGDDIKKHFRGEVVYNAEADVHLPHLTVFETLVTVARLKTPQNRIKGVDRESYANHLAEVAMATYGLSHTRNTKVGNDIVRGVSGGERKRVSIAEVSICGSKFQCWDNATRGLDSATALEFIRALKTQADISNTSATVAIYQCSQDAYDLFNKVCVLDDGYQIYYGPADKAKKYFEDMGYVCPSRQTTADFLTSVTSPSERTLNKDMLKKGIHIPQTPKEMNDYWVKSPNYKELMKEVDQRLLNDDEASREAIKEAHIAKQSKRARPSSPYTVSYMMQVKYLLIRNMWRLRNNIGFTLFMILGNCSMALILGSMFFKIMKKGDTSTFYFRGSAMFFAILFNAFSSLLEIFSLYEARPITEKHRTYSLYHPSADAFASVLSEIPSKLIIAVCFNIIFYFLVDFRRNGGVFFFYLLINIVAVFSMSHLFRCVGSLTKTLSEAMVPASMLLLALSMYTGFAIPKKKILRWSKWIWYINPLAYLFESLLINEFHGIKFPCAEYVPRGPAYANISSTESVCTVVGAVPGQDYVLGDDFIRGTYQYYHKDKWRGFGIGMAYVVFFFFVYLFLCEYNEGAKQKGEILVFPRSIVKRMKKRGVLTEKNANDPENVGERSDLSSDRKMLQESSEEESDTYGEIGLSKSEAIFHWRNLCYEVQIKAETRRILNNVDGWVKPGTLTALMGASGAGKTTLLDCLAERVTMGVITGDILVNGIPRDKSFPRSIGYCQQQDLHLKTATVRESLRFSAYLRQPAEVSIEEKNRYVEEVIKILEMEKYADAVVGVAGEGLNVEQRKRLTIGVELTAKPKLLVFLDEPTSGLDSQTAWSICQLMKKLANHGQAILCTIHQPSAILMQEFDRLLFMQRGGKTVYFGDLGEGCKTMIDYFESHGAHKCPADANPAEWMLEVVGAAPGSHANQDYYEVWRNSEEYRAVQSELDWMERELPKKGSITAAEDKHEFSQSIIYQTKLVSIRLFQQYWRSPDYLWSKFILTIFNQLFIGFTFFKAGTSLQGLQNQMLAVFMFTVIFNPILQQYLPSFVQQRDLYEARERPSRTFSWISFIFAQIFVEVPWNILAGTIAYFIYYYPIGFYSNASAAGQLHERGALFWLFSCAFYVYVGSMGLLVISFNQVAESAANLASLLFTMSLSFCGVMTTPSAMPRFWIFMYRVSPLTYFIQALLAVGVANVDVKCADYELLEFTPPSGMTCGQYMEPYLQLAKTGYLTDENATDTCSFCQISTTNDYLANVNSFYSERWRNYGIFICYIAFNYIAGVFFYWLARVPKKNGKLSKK

Target: Pleiotropic ABC efflux transporter of multiple drugs (Saccharomyces cerevisiae S288c, UniProt P33302)
Assay: Inhibition of Pdr5p-mediated rhodamine 6G transport in Saccharomyces cerevisiae MKPDR5h plasma membrane by spectrofluorometric assay

IC50: 1300 nM
SMILES: CSc1ccc2c(c1)N(CCC1CCCCN1C)c1ccccc1S2 (stereo unspecified) [THIORIDAZINE]
